Data from paper PMC10318897, “The structure of Leptospira interrogans GAPDH sheds light into an immunoevasion factor that can target the anaphylatoxin C5a of innate immunity” (Frontiers in Immunology, 2023).

Tested on: O=P(O)(O)O
Experiment: purified protein
Conditions: 2 mM NAD+, 2 mM G3P, 40 mM Tris-HCl pH 8.5, 2 mM EDTA, 25 °C, fit with substrate inhibition

## LiGAPDH (Leptospira interrogans serovar Copenhageni str. Fiocruz L1-130)
  Km: 1200 ± 100 µM
  kcat: 110 ± 7 s⁻¹
  kcat/Km: 91000 M⁻¹ s⁻¹
